Source: patent US7312225B2, “Macrocyclic pyrimidines, their production and use as pharmaceutical agents” (Bayer Schering Pharma AG, priority 2002, dated 2007)
pIC50: −log10 of the molar value.

Experiments:
[1] = molecular target: CDK2/CycE (Homo sapiens, UniProt P24941); assay: CDK2/CycE kinase assay; format: biochemical; conditions: read-out: Inhibition IC50 CDK2/CycE; Table II
[2] = system: MCF7; assay: Proliferation assay MCF7; conditions: read-out: Proliferation IC50 MCF7; Table II; 4 days incubation, crystal violet

Structure (SMILES) | pIC50 [1] | pIC50 [2]
O=C1NCCCCCNc2nc(ncc2Br)Nc2cccc1c2 | 5.15 | 4.52
O=C1NCCCCCNc2ccnc(n2)Nc2cccc1c2 | < 5.00 | –
